Results reported in ChEMBL document CHEMBL2346557, “VBP15: preclinical characterization of a novel anti-inflammatory delta 9,11 steroid” (Bioorg Med Chem, 2013).

The chains behind the UniProt entries cited, without tags or fusion partners.
UniProt P08684, whole entry: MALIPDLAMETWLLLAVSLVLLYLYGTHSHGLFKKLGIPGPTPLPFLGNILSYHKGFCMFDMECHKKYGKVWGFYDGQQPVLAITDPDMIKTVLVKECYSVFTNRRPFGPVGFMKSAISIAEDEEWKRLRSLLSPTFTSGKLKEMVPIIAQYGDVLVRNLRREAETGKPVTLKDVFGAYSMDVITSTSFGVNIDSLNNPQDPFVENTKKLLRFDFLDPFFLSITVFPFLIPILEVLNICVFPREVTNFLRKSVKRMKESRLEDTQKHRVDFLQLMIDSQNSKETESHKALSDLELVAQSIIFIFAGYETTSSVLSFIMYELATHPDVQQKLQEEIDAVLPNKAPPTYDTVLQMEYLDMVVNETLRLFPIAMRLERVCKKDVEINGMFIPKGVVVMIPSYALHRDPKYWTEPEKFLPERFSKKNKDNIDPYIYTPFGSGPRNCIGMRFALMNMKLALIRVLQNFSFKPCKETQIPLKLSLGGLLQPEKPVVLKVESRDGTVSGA

Tests used:
CYP3A4 = CYP3A4 (Homo sapiens, UniProt P08684); experiment: Inhibition of CYP3A4 (unknown origin) at 10 mM relative to control; assay type: ADME
Rattus norvegicus [1] = organism: Rattus norvegicus; experiment: Ratio of drug level in brain to plasma of rat at 1 hr
Rattus norvegicus [2] = organism: Rattus norvegicus; experiment: Ratio of drug level in brain to plasma of rat at 8 hrs
Rattus norvegicus [3] = organism: Rattus norvegicus; experiment: Ratio of drug level in brain to plasma of rat at 6 hrs
Rattus norvegicus [4] = organism: Rattus norvegicus; experiment: Ratio of drug level in brain to plasma of rat at 4 hrs
Rattus norvegicus [5] = organism: Rattus norvegicus; experiment: Ratio of drug level in brain to plasma of rat at 2 hrs
Rattus norvegicus [6] = organism: Rattus norvegicus; experiment: Ratio of drug level in brain to plasma of rat at 0.5 hrs
Rattus norvegicus [7] = organism: Rattus norvegicus; experiment: Ratio of drug level in brain to plasma of rat at 0.25 hrs

- inhibition at 10000 µM (CYP3A4): 15.3%
- BPR (Rattus norvegicus [1]): 0.614
- BPR (Rattus norvegicus [2]): 0.433
- BPR (Rattus norvegicus [3]): 0.581
- BPR (Rattus norvegicus [4]): 0.583
- BPR (Rattus norvegicus [5]): 0.593
- BPR (Rattus norvegicus [6]): 0.62
- BPR (Rattus norvegicus [7]): 0.648
SMILES: C[C@@H]1C[C@H]2[C@@H]3CCC4=CC(=O)C=C[C@]4(C)C3=CC[C@]2(C)[C@@]1(O)C(=O)CO [VAMOROLONE]
